Source: patent US6566541B2, “Type 2 methionine aminopeptidase (MetAP2) inhibitors and uses thereof” (Massachusetts Institute of Technology, priority 1997, dated 2003)

Chains of the proteins cited; added tags and fusions are not shown.
UniProt P50579, whole entry: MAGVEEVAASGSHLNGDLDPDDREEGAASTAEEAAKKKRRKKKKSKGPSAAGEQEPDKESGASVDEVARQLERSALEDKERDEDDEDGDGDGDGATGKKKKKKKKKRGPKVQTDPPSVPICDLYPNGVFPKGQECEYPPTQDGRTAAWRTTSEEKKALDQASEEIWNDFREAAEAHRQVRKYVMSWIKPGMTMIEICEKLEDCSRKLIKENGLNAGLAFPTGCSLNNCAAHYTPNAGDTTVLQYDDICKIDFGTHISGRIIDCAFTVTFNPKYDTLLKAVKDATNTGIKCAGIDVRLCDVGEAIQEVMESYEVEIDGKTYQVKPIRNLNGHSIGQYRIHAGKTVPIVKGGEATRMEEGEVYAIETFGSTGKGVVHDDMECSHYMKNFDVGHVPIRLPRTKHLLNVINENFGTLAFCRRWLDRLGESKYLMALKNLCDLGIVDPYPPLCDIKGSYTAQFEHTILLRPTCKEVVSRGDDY

Assays:
recombinant human MetAP2 = recombinant human MetAP2 (Homo sapiens, UniProt P50579); experiment: methionine aminopeptidase activity of MetAP2 (Met-Gly-Met-Met substrate); format: biochemical; conditions: read-out: MetAP2 IC50; MetAP2 enzymatic activity; average of at least three experiments
[1] = tested on: bovine aortic endothelial cell (BAEC); experiment: bovine aortic endothelial cell (BAEC) proliferation assay (MTT); format: cell-based; conditions: read-out: Proliferation IC50, average of at least three experiments

Row | IC50 (recombinant human MetAP2) | SMILES | IC50 [1]
1 | 5000 nM | COC1C(O)CCC(O)(CSC)C1C1(C)OC1CC=C(C)C (centres unmarked) | 2800 nM
2 | – | COC1C(OC(=O)CCCCl)CCC2(CO2)C1C1(C)OC1CC=C(C)C (centres unmarked) | 0.12 nM
3 | 8 nM | COC1C(O)CCC2(CO2)C1C1(C)OC1CC=C(C)C (centres unmarked) | 9.5 nM
